{"source": "patent US6613897B1", "about": "“Compounds having glucuronic acid derivatives and glucosamine derivative in the structure, process for producing the same and utilization thereof” (Maruha Corporation, priority 1998, dated 2003)", "key": {"[1]": {"system": "bovine aortic vascular endothelial cells", "assay": "Vascular endothelial cell growth promoting action (BrdU uptake)", "format": "cell-based", "settings": "20 hours", "description": "Also, the compounds of the invention acted synergistically with vascular endothelial growth factor (VEGF), a cytokine known to act specifically on vascular endothelial cells and promote the growth of these cells, thereby showing a better vascular endothelial cell growth promoting action.\nThis test used bovine aortic vascular endothelial cells (passage number 3) as cells, and MEM containing 10% FCS (fetal calf serum), 100 units/mL penicillin G, and 100 μg/mL streptomycin as a culture medium. 96-Well microplates were seeded with the cells in an amount of 4×10^3 cells/well (4×10^4/mL; 100 μL), and the compounds of the formula (1) (Compound Examples 1 to 10) (10 μL; dissolved in culture medium) were each added in a predetermined end concentration (0, 0.1, 0.5, 1, 5, 10 μg/mL). Culture was performed for 20 hours at 37° C. and 5% CO2, and then the effect of the compounds on vascular endothelial cell growth was measured using “Cell Growth ELISA, BrdU Color Development Kit” (Boehringer Mannheim) (uptake of 5-bromodeoxyuridine (BrdU) was adopted as an indicator)."}, "[2]": {"system": "bovine aortic vascular endothelial cells"}, "[3]": {"system": "rabbit platelet rich plasma", "settings": "read-out: 50% Inhibitory Concentration; collagen-induced platelet aggregation, rabbit PRP"}}, "note": "Like-named read-outs stand apart in the source and are kept apart here.", "data": [{"substance": "4-deoxy-α-L-threo-hexa-4-enepyranuronosyl-(1→3)-O-2-acetamide-2-deoxy-β-D-glucopyranosyl-(1→4)-3-O-β-D-glucopyranuronosyl-(1→3)-O-2-acetamide-2-deoxy-β-D-glucopyranosyl-(1→4)-3-O-β-D-glucopyranuronitol [Compound Example 10]", "values": [{"measurement": "Promoting rate", "setting": "[1]; compound concentration 0.1 μg/mL", "result": 101.1, "unit": "%"}, {"measurement": "Promoting rate", "setting": "[1]; compound concentration 0.5 μg/mL", "result": 138.8, "unit": "%"}, {"measurement": "Promoting rate", "setting": "[1]; compound concentration 1 μg/mL", "result": 178.3, "unit": "%"}, {"measurement": "Promoting rate", "setting": "[1]; compound concentration 5 μg/mL", "result": 170.0, "unit": "%"}, {"measurement": "Promoting rate", "setting": "[1]; compound concentration 10 μg/mL", "result": 135.8, "unit": "%"}, {"measurement": "Promoting rate", "setting": "[2]; compound concentration 0.1 μg/mL + VEGF 10 ng/mL", "result": 165.2, "unit": "%"}, {"measurement": "Promoting rate", "setting": "[2]; compound concentration 0.5 μg/mL + VEGF 10 ng/mL", "result": 199.9, "unit": "%"}, {"measurement": "Promoting rate", "setting": "[2]; compound concentration 1 μg/mL + VEGF 10 ng/mL", "result": 243.3, "unit": "%"}, {"measurement": "Promoting rate", "setting": "[2]; compound concentration 5 μg/mL + VEGF 10 ng/mL", "result": 228.7, "unit": "%"}, {"measurement": "Promoting rate", "setting": "[2]; compound concentration 10 μg/mL + VEGF 10 ng/mL", "result": 194.0, "unit": "%"}, {"measurement": "IC50", "setting": "[3]", "result": 3.5, "unit": "nM"}]}]}
